# Publication PMC10380083, “Synthesis of Prostate-Specific Membrane Antigen-Targeted Bimodal Conjugates of Cytotoxic Agents and Antiandrogens and Their Comparative Assessment with Monoconjugates” (International Journal of Molecular Sciences, 2023)
# Columns and labels:
# [1] = system: PC-3 cells; assay: In vitro cytotoxicity, MTS assay, PC-3; type: cell-based, human; conditions: 72 h, extremely low PSMA expression, range 0.5 to 800 nM, triplicates
# Description: (§1) The resulting bimodal conjugates were tested in vitro on three different PCa cell lines. We used LNCaP cells with high PSMA expression, 22Rv1 cells with moderate PSMA expression and PC-3 cells with extremely low PSMA expression. Different levels of PSMA expression in 22Rv1 and LNCaP cell lines allows evaluation of the effect of the level of expression on the toxicity of the target drugs. PSMA-negative cell line PC-3 allows a qualitative assessment of non-specific toxicity of the obtained compounds.
# (§2) The cytotoxicity of the investigated substances was tested using the MTS assay with some modifications. Cells were seeded in the 96-well plates (Corning, New York, NY, USA) at concentration of 7000 cells per well for PC-3 culture, 12,000 cells per well for LNCaP cells and 20,000 cells per well for 22Rv1 line. The cells were counted using the automatic cell counter EVE. All cell lines were purchased from the American Type Culture Collection (ATCC, Manassas, VA, USA). After 1 day, serial dilutions of tested substances were added to the cells. Cell culture medium with addition of DMSO in appropriate concentrations was used as a negative control. DMSO (30%) was added in culture medium as a positive control. Cells were then incubated during 72 h at 37 °C and 5% CO2. Later, the culture medium from each well was removed and 20 μL of MTS reagent (CellTiter 96 AQueous Non-Radioactive Cell Proliferation Assay, Promega) were added to each well with 100 μL of new culture medium. After 4 h incubation at 37 °C in darkness, the absorbance of the solution was measured at 490 nm wavelength using Thermo Scientific Multiskan GO spectrometer. Cell viability was calculated as a percentage compared to control cells. The absorbance of MTS reagent in culture medium without cells was taken as zero. […] Experiments were performed in triplicates. Data were analyzed using Prism 9—GraphPad version 9.2.0 software. p values < 0.05 were considered significant.
# [2] = system: 22Rv1 cells; assay: In vitro cytotoxicity, MTS assay, 22Rv1; type: cell-based, human; conditions: 72 h, moderate PSMA expression, range 0.5 to 800 nM, triplicates
# Description: as §1, §2
# [3] = system: LNCaP cells; assay: In vitro cytotoxicity, MTS assay, LNCaP; type: cell-based; conditions: 72 h, high PSMA expression, range 0.5 to 800 nM, triplicates
# Description: as §1, §2
Compound,"CC50, PC-3 [1]","CC50, 22Rv1 [2]","CC50, LNCaP [3]"
CC[C@H](C)[C@@H]([C@@H](CC(=O)N1CCC[C@H]1[C@H](OC)[C@@H](C)C(=O)N[C@H](C)[C@@H](O)c1ccccc1)OC)N(C)C(=O)[C@@H](NC(=O)[C@H](C(C)C)N(C)C(=O)OCc1ccc(NC(=O)[C@H](CCCNC(N)=O)NC(=O)[C@@H](NC(=O)CCCc2cn(CCCNC(=O)[C@H](CCCCNC(=O)CCC(=O)O[C@H]3CC[C@@]4(C)C(=CC[C@@H]5[C@@H]4CC[C@]4(C)C(c6cccnc6)=CC[C@@H]54)C3)NC(=O)[C@H](Cc3ccc(O)cc3)NC(=O)[C@H](Cc3ccccc3)NC(=O)CCC(=O)NCCCCCC(=O)N(CCCC[C@H](NC(=O)N[C@@H](CCC(=O)O)C(=O)O)C(=O)O)Cc3cccc(Cl)c3)nn2)C(C)C)cc1)C(C)C [13a],>800 nM,155.8 ± 2.4 nM,172.6 ± 2.9 nM
CC[C@H](C)[C@@H]([C@@H](CC(=O)N1CCC[C@H]1[C@H](OC)[C@@H](C)C(=O)N[C@H](C)[C@@H](O)c1ccccc1)OC)N(C)C(=O)[C@@H](NC(=O)[C@H](C(C)C)N(C)C(=O)OCc1ccc(NC(=O)[C@H](CCCNC(N)=O)NC(=O)[C@@H](NC(=O)CCCc2cn(CCCNC(=O)[C@H](CCCCNC(=O)CCC(=O)O[C@H]3CC[C@@]4(C)C(=CC[C@@H]5[C@@H]4CC[C@]4(C)C(c6cccnc6)=CC[C@@H]54)C3)NC(=O)[C@H](Cc3ccc(O)cc3)NC(=O)[C@H](Cc3ccccc3)NC(=O)CCC(=O)NCCCCCC(=O)N(CCCC[C@H](NC(=O)N[C@@H](CCC(=O)O)C(=O)O)C(=O)O)Cc3ccc(Br)cc3)nn2)C(C)C)cc1)C(C)C [13b],>800 nM,128.5 ± 2.0 nM,129.7 ± 1.7 nM
CC[C@H](C)[C@@H]([C@@H](CC(=O)N1CCC[C@H]1[C@H](OC)[C@@H](C)C(=O)N[C@H](C)[C@@H](O)c1ccccc1)OC)N(C)C(=O)[C@@H](NC(=O)[C@H](C(C)C)N(C)C(=O)OCc1ccc(NC(=O)[C@H](CCCNC(N)=O)NC(=O)[C@@H](NC(=O)CCCc2cn(CCCNC(=O)[C@H](CCCCNC(=O)CCC(=O)O[C@H]3CC[C@@]4(C)C(=CC[C@@H]5[C@@H]4CC[C@]4(C)C(c6cccnc6)=CC[C@@H]54)C3)NC(=O)[C@H](Cc3ccc(O)cc3)NC(=O)[C@H](Cc3ccccc3)NC(=O)CCC(=O)NCCCCCC(=O)N(CCCC[C@H](NC(=O)N[C@@H](CCC(=O)O)C(=O)O)C(=O)O)Cc3ccc(C(=O)O)cc3)nn2)C(C)C)cc1)C(C)C [13c],>800 nM,192.2 ± 2.7 nM,159.0 ± 2.9 nM
CC[C@H](C)[C@@H]([C@@H](CC(=O)N1CCC[C@H]1[C@H](OC)[C@@H](C)C(=O)N[C@H](C)[C@@H](O)c1ccccc1)OC)N(C)C(=O)[C@@H](NC(=O)[C@H](C(C)C)N(C)C(=O)OCc1ccc(NC(=O)[C@H](CCCNC(N)=O)NC(=O)[C@@H](NC(=O)CCCc2cn(CCCNC(=O)[C@H](CCCCNC(=O)CCC(=O)O[C@H]3CC[C@@]4(C)C(=CC[C@@H]5[C@@H]4CC[C@]4(C)C(c6cccnc6)=CC[C@@H]54)C3)NC(=O)[C@H](Cc3ccccc3)NC(=O)[C@H](Cc3ccccc3)NC(=O)CCC(=O)NCCCCCC(=O)N(CCCC[C@H](NC(=O)N[C@@H](CCC(=O)O)C(=O)O)C(=O)O)Cc3ccc(C(=O)O)cc3)nn2)C(C)C)cc1)C(C)C [13d],>800 nM,191.8 ± 2.4 nM,212.6 ± 3.8 nM
CC[C@H](C)[C@@H]([C@@H](CC(=O)N1CCC[C@H]1[C@H](OC)[C@@H](C)C(=O)N[C@H](C)[C@@H](O)c1ccccc1)OC)N(C)C(=O)[C@@H](NC(=O)[C@H](C(C)C)N(C)C(=O)OCc1ccc(NC(=O)[C@H](CCCNC(N)=O)NC(=O)[C@@H](NC(=O)CCCc2cn(CCCNC(=O)[C@H](CCCCNC(=O)c3ccc(N4C(=S)N(c5ccc(C#N)c(C(F)(F)F)c5)C(=O)C4(C)C)cc3F)NC(=O)[C@H](Cc3ccc(O)cc3)NC(=O)[C@H](Cc3ccccc3)NC(=O)CCC(=O)NCCCCCC(=O)N(CCCC[C@H](NC(=O)N[C@@H](CCC(=O)O)C(=O)O)C(=O)O)Cc3cccc(Cl)c3)nn2)C(C)C)cc1)C(C)C [compound 15],>800 nM,170.2 ± 15.3 nM,139.4 ± 19.3 nM
